Two compounds from publication PMC8007111, “Novel Potent Muscarinic Receptor Antagonists: Investigation on the Nature of Lipophilic Substituents in the 5- and/or 6-Positions of the 1,4-Dioxane Nucleus” (Journal of Medicinal Chemistry, 2020) can be followed below.

By UniProt entry, the sequences of proteins in these tests, tags left out. Where a name states a change or a piece, a line headed by the entry shows the natural chain unless it says otherwise.
UniProt P11229: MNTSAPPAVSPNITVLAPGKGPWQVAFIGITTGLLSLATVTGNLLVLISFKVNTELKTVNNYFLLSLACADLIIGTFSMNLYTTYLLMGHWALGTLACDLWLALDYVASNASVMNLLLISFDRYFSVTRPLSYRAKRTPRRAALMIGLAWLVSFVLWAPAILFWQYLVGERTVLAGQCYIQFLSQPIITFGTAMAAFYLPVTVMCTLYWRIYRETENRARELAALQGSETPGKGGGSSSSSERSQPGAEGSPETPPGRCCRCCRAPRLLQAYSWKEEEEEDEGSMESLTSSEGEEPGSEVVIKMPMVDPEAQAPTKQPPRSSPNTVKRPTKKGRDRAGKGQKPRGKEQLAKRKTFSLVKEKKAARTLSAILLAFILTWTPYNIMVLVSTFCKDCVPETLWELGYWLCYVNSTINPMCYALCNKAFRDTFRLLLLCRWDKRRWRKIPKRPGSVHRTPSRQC
UniProt P08172, whole entry: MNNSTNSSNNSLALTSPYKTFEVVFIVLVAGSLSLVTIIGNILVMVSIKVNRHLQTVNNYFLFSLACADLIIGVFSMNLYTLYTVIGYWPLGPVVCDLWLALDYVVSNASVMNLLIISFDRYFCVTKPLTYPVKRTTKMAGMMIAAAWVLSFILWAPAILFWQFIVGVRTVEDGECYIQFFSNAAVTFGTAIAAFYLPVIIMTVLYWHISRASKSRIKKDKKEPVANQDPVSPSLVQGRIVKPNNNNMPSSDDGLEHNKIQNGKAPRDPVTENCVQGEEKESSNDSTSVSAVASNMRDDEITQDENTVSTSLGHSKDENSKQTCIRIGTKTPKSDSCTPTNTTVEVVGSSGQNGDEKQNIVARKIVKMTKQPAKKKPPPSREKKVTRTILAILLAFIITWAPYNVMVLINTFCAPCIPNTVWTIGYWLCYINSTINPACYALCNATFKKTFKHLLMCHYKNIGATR
UniProt P20309, whole entry: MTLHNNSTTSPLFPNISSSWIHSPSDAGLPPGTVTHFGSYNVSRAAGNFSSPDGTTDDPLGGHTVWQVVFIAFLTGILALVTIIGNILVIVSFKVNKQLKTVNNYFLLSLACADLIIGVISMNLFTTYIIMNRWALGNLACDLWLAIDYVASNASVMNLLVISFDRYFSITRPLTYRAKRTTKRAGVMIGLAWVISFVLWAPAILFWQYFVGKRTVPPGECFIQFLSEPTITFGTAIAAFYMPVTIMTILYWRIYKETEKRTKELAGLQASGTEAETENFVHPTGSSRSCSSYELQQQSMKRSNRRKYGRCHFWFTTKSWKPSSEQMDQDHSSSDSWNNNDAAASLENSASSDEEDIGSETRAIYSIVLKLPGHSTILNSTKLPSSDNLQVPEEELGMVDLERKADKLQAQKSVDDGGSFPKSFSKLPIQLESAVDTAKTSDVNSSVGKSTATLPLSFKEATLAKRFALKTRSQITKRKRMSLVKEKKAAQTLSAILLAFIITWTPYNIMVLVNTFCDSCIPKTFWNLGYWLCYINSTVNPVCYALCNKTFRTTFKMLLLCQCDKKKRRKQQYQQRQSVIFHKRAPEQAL
UniProt P08173, whole entry: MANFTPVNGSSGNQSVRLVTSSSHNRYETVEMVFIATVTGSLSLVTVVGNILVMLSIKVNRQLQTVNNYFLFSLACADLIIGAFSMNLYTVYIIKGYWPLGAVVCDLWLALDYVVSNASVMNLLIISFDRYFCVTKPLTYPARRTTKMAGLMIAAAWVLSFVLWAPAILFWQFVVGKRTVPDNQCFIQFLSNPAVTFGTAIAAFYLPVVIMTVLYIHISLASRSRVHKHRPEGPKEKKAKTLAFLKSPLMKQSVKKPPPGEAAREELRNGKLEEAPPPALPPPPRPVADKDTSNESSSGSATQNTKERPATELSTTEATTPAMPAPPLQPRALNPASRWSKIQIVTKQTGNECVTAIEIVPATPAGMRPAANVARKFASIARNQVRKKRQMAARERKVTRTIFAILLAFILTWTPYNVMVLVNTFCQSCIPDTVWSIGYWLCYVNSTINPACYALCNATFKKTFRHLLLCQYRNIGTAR
UniProt P08912, whole entry: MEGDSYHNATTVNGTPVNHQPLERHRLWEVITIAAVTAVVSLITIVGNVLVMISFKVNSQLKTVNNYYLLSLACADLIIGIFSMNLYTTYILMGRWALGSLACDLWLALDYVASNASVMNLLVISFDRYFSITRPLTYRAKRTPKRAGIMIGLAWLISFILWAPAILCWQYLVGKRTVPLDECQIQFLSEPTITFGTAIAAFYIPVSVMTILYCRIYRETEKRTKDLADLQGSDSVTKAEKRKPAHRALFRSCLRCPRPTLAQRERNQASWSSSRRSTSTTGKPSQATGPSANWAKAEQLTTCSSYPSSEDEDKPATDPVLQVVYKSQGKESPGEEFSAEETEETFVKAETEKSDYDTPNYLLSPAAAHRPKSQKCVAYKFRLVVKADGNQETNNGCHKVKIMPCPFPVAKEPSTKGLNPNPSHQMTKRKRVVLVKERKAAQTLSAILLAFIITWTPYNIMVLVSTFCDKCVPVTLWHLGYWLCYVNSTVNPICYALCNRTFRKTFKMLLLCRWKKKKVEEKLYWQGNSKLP

The target in one assay is T1, hM1 mAChR (Homo sapiens, UniProt P11229).
T1 construct: expressed in transfected cells; host or cells: CHO-K1 (membrane preparation)
Kind of assay: [3H]NMS inhibition radioligand binding, hM1 in CHO-K1 cell membranes. The conditions noted are these: eutomer vs distomer. As to the method:
(§1) CHO-K1 cells stably transfected with the human muscarinic receptor subtypes (hM1–5) were grown in Dulbecco’s modified Eagle’s medium (DMEM) with nutrient mixture F12 (DMEM/F12, 50/50), containing 10% fetal bovine serum, penicillin (100 U/mL), streptomycin (100 U/mL), L-glutamine (4 mM), and geneticin (G-418, 50 μg/mL) at 37 °C in a 5% CO2 humidified incubator. […] Serum (0.7 mL) was added to inactivate the trypsin, and the cells were spun down by centrifuging at 300g for 5 min. The cells were then resuspended in ice-cold 25 mM sodium phosphate buffer containing 5 mM MgCl2, pH 7.4 (binding buffer) and homogenized using a cell disrupter (Ultra-Turrax, setting 3, 30 s). The homogenate was sedimented by centrifugation (17,000g, 15 min). […] The protein content was determined by the method of Bradford (1976) with bovine serum albumin (Sigma) as a standard and stored at −80 °C.
(§2) Inhibition radioligand binding assays were conducted as previously described[48],[49] with 0.2 nM [^3H]NMS in binding buffer in a final volume of 250 μL. […] Bound and free radioactivity were separated by filtering the assay mixture through UniFilter GF/B plates using a FilterMate Cell Harvester (PerkinElmer Life and Analytical Science). The filter bound radioactivity was counted by a TopCount NXT Microplate Scintillation Counter (PerkinElmer Life and Analytical Science). […]

The target of another assay is T2, hM2 mAChR (Homo sapiens, UniProt P08172).
T2 construct: expressed in transfected cells; host or cells: CHO-K1 (membrane preparation)
Kind of assay: [3H]NMS inhibition radioligand binding, hM2 in CHO-K1 cell membranes. The conditions noted are these: eutomer vs distomer. The protocol: as §1, §2

The next assay deals with T3, hM3 mAChR (Homo sapiens, UniProt P20309).
T3 construct: expressed in transfected cells; host or cells: CHO-K1 (membrane preparation)
Briefly: [3H]NMS inhibition radioligand binding, hM3 in CHO-K1 cell membranes. As to the method: as §1, §2

Another assay concerns the target T4, hM4 mAChR (Homo sapiens, UniProt P08173).
T4 construct: expressed in transfected cells; host or cells: CHO-K1 (membrane preparation)
Briefly: [3H]NMS inhibition radioligand binding, hM4 in CHO-K1 cell membranes. The conditions noted are these: eutomer vs distomer. As to the method:
as §1, §2

A further assay deals with T5, hM5 mAChR (Homo sapiens, UniProt P08912).
T5 construct: expressed in transfected cells; host or cells: CHO-K1 (membrane preparation)
Kind of assay: [3H]NMS inhibition radioligand binding, hM5 in CHO-K1 cell membranes. The conditions noted are these: eutomer vs distomer. The protocol: as §1, §2

The structures appear in SMILES notation.

As to `C[N+](C)(C)C[C@H]1COCC(c2ccccc2)(c2ccccc2)O1` [(S)-(−)-2, reference compound], at hM1 mAChR, the “ER (eudismic ratio) hM1” value is on record as 32. Also, at hM2 mAChR, the “ER (eudismic ratio) hM2” value was 12. Besides, the “ER (eudismic ratio) hM3” value at hM3 mAChR (eutomer vs distomer) amounted to 42. The “ER (eudismic ratio) hM4” value at hM4 mAChR was determined as 102. Besides, the “ER (eudismic ratio) hM5” value on hM5 mAChR came to 63.

Take `C[N+](C)(C)CC1COCC(c2ccccc2)(c2ccccc2)O1.[I-]` (stereo not drawn) [compound 2, reference compound]: the M3/M2 selectivity ratio on hM3 mAChR (from binding affinities at hM3 and hM2) is 1.6.
